The values that follow come from US20070196883A1, “ENZYME” (UNIVERSITY OF DUNDEE, priority 1999, published 2007).

By UniProt entry, the sequences of proteins in these tests, tags left out. Where a name states a change or a piece, a line headed by the entry shows the natural chain unless it says otherwise.
UniProt P31749: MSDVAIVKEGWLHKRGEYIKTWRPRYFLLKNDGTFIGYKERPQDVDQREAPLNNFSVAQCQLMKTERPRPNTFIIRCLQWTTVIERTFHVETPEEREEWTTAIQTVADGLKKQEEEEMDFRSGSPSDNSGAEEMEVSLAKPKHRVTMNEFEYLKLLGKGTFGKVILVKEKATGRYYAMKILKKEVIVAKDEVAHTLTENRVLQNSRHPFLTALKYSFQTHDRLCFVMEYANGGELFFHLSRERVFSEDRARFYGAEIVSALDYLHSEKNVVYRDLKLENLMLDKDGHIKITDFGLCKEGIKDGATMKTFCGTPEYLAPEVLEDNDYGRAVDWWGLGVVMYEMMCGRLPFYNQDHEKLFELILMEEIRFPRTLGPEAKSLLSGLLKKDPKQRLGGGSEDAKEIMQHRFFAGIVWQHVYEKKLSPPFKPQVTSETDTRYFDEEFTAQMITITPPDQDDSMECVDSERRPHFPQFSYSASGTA

The target in this series is T1, GST-PKBα (Homo sapiens, UniProt P31749).
T1 construct: made in house; host or cells: 293 cells (pEBG2T)
Briefly: Two-stage PKBα activation assay (maximum specific activity). To be noted: MgATP and PtdIns(3,4,5)P3. Type of series: biochemical. The method, then:
FIG. 4. Incubation of PIF with PKBα induces phosphorylation of PKBα at both Thr308 and Ser473. GST-PKBα (A) or GST-S473D-PKBα (B) was incubated at 30° C. for 1 h with MgATP in the presence of either His-PDK1 (0.1 μg) or GST-PIF purified from 293 cells which is associated with endogenous PDK1 (1 μg termed GST-PIF/PDK1) in the presence or absence of phospholipid vesicles containing 100 μM PtdCho, 100 μM PtdSer, and 10 μM sn-1-stearoyl-2-arachidonoyl-D-PtdIns(3,4,5)P3. The increase in specific activity of GST-PKBα was determined, relative to a control incubation in which His-PDK1 or GST-PIF was omitted (average for 6 determinations, two independent experiments). […] Between 50-70% of the radioactivity applied to the column was recovered in the major ^32P-containing peptides eluting at 24% and 26% acetonitrile, which were identified (see results) as the PKBα tryptic peptides phosphorylated at Ser473 and Thr308 respectively. […]
In Stage 1, an 15 μl reaction mixture was set up containing 66.5 mM Tris/HCl pH 7.5, 0.13 mM EGTA, 0.13% (by vol) 2-mercaptoethanol, 3.3 μM PKI, 1.3 μM microcystin-LR, 13.3 mM Mg(Ac)2, 133 μM unlabelled ATP, 0.4 μM GST-PKBA, 133 μM PtdSer, 133 μM PtdCho in the presence or absence of 13.3 μM PtdIns(3,4,5)P3. […] The papers were washed in 75 mM phosphoric acid and analysed as described previously. […] The basal GST-PKBα activity is the activity measured in the absence of PDK1. […]

B1: His-PDK1: Myc-PDK1 with an N-terminal hexahistidine sequence, expressed in Sf21 insect cells (protein)
chain: MARTTSQLYDAVPIQSSVVLCSCPSPSMVRTQTESSTPPGIPGGSRQGPAMDGTAAEPRPGAGSLQHAQPPPQPRKKRPEDFKFGKILGEGSFSTVVLARELATSREYAIKILEKRHIIKENKVPYVTRERDVMSRLDHPFFVKLYFTFQDDEKLYFGLSYAKNGELLKYIRKIGSFDETCTRFYTAEIVSALEYLHGKGIIHRDLKPENILLNEDMHIQITDFGTAKVLSPESKQARANSFVGTAQYVSPELLTEKSACKSSDLWALGCIIYQLVAGLPPFRAGNEYLIFQKIIKLEYDFPEKFFPKARDLVEKLLVLDATKRLGCEEMEGYGPLKAHPFFESVTWENLHQQTPPKLTAYLPAMSEDDEDCYGNYDNLLSQFGCMQVSSSSSSHSLSASDTGLPQRSGSNIEQYIHDLDSNSFELDLQFSEDEKRLLLEKQAGGNPWHQFVENNLILKMGPVDKRKGLFARRRQLLLTEGPHLYYVDPVNKVLKGEIPWSQELRPEAKNFKTFFVHTPNRTYYLMDPSGNAHKWCRKIQEVWRQRYQSHPDAAVQ
modifications: left off: small tags and cut ends
Take B1: the “maximum specific activity of GST-PKBα” value was ~30 U/mg.
